Tested on: Limulus Amoebocyte Lysate

(3R,9R)-3-[(R)-3-dodecanoyloxytetradecanoylamino]-4oxo-5-aza-9-[(R)-3-hydroxytetradecanoylamino]-1,10-diol 1-dihydrogenphosphate 10-(6-aminohexanoate) [OM-197-MP-AC (R, R)]
LAL EU/mg of product: 0.15 EU/mg of product
LAL ng of LPS equivalent per mg of product: 0.012 ng of LPS equivalent per mg of product
